The results in this text go back to patent publication US20060035844A1, “Preventive or remedy for diseases caused by hyperglycemia” (priority 2002, published 2006).

This assay has as its system male Wistar rats. Briefly: Effects of an SGLT1 inhibitor on absorption of fructose (fructose tolerance test, residual fructose in the gastrointestinal tract). It counts as in vivo, rat. The following applies: 0.2 g/kg fructose load, after 30 minutes, control 11.8 ± 2.1.

Regarding `O=C(CCc1ccc(O)cc1)c1c(O)cc(O)cc1O[C@@H]1O[C@H](CO)[C@@H](O)[C@H](O)[C@H]1O` [Phlorizin, reference compound], the “Residual fructose (% of dose) in the gastrointestinal tract” value by setting is: (40 mg/kg oral, ** P<0.01) 22.5 ± 1.9 ** %; (100 mg/kg oral, *** P<0.001) 32.2 ± 1.5 *** %.
